{"sequences": {"note": "Protein sequences, listed by entry. Tags and fused reporters are not part of them. Lines headed by an entry give the natural chain unless they say otherwise; changes in a name come on top.", "UniProt P54578": "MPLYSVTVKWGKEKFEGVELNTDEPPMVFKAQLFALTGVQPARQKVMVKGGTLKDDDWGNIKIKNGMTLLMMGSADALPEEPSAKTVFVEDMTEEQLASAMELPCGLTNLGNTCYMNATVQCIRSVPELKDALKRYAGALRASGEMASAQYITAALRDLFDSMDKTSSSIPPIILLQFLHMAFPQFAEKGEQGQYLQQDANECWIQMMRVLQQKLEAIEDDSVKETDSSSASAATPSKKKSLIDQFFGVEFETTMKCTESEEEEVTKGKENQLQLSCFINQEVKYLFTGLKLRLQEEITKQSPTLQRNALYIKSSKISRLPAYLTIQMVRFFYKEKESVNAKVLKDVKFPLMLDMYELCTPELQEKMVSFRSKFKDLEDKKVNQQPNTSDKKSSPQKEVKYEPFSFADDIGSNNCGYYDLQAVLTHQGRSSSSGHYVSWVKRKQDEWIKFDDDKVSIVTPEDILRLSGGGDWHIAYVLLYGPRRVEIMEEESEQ"}, "source": "patent US9399647B2", "about": "“Proteasome activity modulating compounds” (Proteostasis Therapeutics, Inc., priority 2012, dated 2016)", "target": "USP14 (Homo sapiens, UniProt P54578)", "assay": "USP14 inhibition assay", "assay_type": "biochemical", "source_text": "The IC50 values in the Table below represent the average value from three experimental determinations.\nThese IC50 values represent the average value from three experimental determinations.", "note": "pIC50: −log10 of the molar value.", "data": [{"molecule": "Cc1cc(C(=O)CN2CCCC2)c(C)n1-c1ccc(F)cc1", "note": "[IU1, 1-(1-(4-fluorophenyl)-2,5-dimethyl-1H-pyrrol-3-yl)-2-(pyrrolidin-1-yl)ethanone, reference compound]", "values": [{"measurement": "pIC50", "value": 5.92}]}]}
